Results taken from PubChem BioAssay (NCI).
Where “and” joins values, the source holds several entries; their conditions need not be identical. Equal entries are not always repeated.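 Cultured in 96-well plates, cells were exposed to test compound for 48 hours across five concentrations. The concentration for 50% growth inhibition is given as GI50. The concentration for full growth arrest is given as TGI.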

Columns and labels:
Experiment in all cases: NCI tumour cell line growth inhibition, 48 h
K-562 leukemia = tested on: K-562 leukemia
HOP-62 NSCLC = tested on: HOP-62 NSCLC
M14 melanoma = tested on: M14 melanoma
MDA-MB-231 breast = tested on: MDA-MB-231 breast
HS 578T breast = tested on: HS 578T breast
SN12K1 renal = tested on: SN12K1 renal
A498 renal = tested on: A498 renal
DMS 273 small cell lung = tested on: DMS 273 small cell lung
A549 NSCLC = tested on: A549 NSCLC
HT29 colon = tested on: HT29 colon
NCI-H226 lung = tested on: NCI-H226 lung
RPMI-8226 leukemia = tested on: RPMI-8226 leukemia
HCT-15 colon = tested on: HCT-15 colon
SF-268 CNS = tested on: SF-268 CNS
SK-MEL-5 melanoma = tested on: SK-MEL-5 melanoma
ACHN renal = tested on: ACHN renal
NCI-H23 lung = tested on: NCI-H23 lung
LXFL 529 NSCLC = tested on: LXFL 529 NSCLC
MDA-N = tested on: MDA-N
SNB-78 CNS = tested on: SNB-78 CNS
MOLT-4 leukemia = tested on: MOLT-4 leukemia
KM20L2 colon = tested on: KM20L2 colon
P388/ADR leukemia = tested on: P388/ADR leukemia
SF-539 CNS = tested on: SF-539 CNS
786-0 renal = tested on: 786-0 renal
OVCAR-4 ovarian = tested on: OVCAR-4 ovarian
P388 leukemia = tested on: P388 leukemia
NCI-H522 lung = tested on: NCI-H522 lung
COLO 205 colon = tested on: COLO 205 colon
XF 498 CNS = tested on: XF 498 CNS
SW-620 colon = tested on: SW-620 colon
SN12C renal = tested on: SN12C renal
HOP-18 NSCLC = tested on: HOP-18 NSCLC

CC1CCOC(=O)/C=C/C=C/C(=O)OC2CC3OC4C5OC5(C)C(O)CC4(COC(=O)C1O)C2(C)C31CO1 (centres undefined)
GI50 (K-562 leukemia): 7.79 nM and 30.7 nM
TGI (K-562 leukemia): 103 nM and 97.6 nM
GI50 (HOP-62 NSCLC): 50 nM and 210 nM
TGI (HOP-62 NSCLC): 135 nM and 942 nM
GI50 (M14 melanoma): 19 nM
TGI (M14 melanoma): 74.9 nM
GI50 (MDA-MB-231 breast): 53.4 nM
TGI (MDA-MB-231 breast): 402 nM
GI50 (HS 578T breast): 1.47 nM
TGI (HS 578T breast): 19.7 nM
GI50 (SN12K1 renal): 30.4 nM
TGI (SN12K1 renal): 57.6 nM
GI50 (A498 renal): 59.8 nM and 359 nM
TGI (A498 renal): 127 nM and 835 nM
GI50 (DMS 273 small cell lung): 59.9 nM and 52.2 nM
TGI (DMS 273 small cell lung): 215 nM and 395 nM
GI50 (A549 NSCLC): 105 nM
TGI (A549 NSCLC): 413 nM and 1230 nM
GI50 (HT29 colon): 69 nM and 235 nM
TGI (HT29 colon): 185 nM and 1730 nM
GI50 (NCI-H226 lung): 50.3 nM and 43.8 nM
TGI (NCI-H226 lung): 119 nM and 120 nM
GI50 (RPMI-8226 leukemia): 6.98 nM and 26.2 nM
TGI (RPMI-8226 leukemia): 100 nM and 60.2 nM
GI50 (HCT-15 colon): 48.4 nM and 106 nM
TGI (HCT-15 colon): 151 nM and 749 nM
GI50 (SF-268 CNS): 100 nM and 197 nM
TGI (SF-268 CNS): 785 nM and 634 nM
GI50 (SK-MEL-5 melanoma): 8.83 nM and 44.5 nM
TGI (SK-MEL-5 melanoma): 35.4 nM and 122 nM
GI50 (ACHN renal): 91.7 nM
TGI (ACHN renal): 842 nM
GI50 (NCI-H23 lung): 52.3 nM and 297 nM
TGI (NCI-H23 lung): 119 nM and 989 nM
GI50 (LXFL 529 NSCLC): 20.8 nM
TGI (LXFL 529 NSCLC): 53.8 nM
GI50 (MDA-N): 12.9 nM
TGI (MDA-N): 41.1 nM
GI50 (SNB-78 CNS): 215 nM and 109 nM
TGI (SNB-78 CNS): 615 nM and 461 nM
GI50 (MOLT-4 leukemia): 8.48 nM and 40.2 nM
TGI (MOLT-4 leukemia): 483 nM and 111 nM
GI50 (KM20L2 colon): 268 nM and 344 nM
TGI (KM20L2 colon): 709 nM and 1560 nM
GI50 (P388/ADR leukemia): 212 nM
TGI (P388/ADR leukemia): 655 nM
GI50 (SF-539 CNS): 12.3 nM and 56.3 nM
TGI (SF-539 CNS): 49.9 nM and 195 nM
GI50 (786-0 renal): 70.7 nM
TGI (786-0 renal): 492 nM
GI50 (OVCAR-4 ovarian): 76 nM and 143 nM
TGI (OVCAR-4 ovarian): 191 nM and 496 nM
GI50 (P388 leukemia): 17.5 nM
TGI (P388 leukemia): 92.7 nM
TGI (NCI-H522 lung): 24.3 nM and 79.3 nM
GI50 (COLO 205 colon): 68.3 nM and 199 nM
TGI (COLO 205 colon): 161 nM and 474 nM
GI50 (XF 498 CNS): 89.4 nM and 61.4 nM
TGI (XF 498 CNS): 418 nM and 173 nM
GI50 (SW-620 colon): 54.3 nM and 80.2 nM
GI50 (SN12C renal): 140 nM
TGI (SN12C renal): 526 nM and 3930 nM
GI50 (HOP-18 NSCLC): 259 nM
TGI (HOP-18 NSCLC): 630 nM and 4490 nM
